Target: T1, hP2X7 receptor (Homo sapiens, UniProt Q99572)
T1 construct: a clone containing the complete open reading frame of the hP2X7 receptor was constructed; expressed in transfected cells; host or cells: HEK293 (transient), pcDNA3
Assay: Whole-cell recordings in HEK293 cells transiently transfected with hP2X7 receptors (Example 3)
Type: cell-based
Conditions: vs 300 μM BzATP, n=4; read-out: concentration causing half-maximal inhibition of currents
Protocol: Cell culture. HEK293 cells were transiently transfected with cDNA (1 μg/ml) and lipofectin dissolved in Optimem (GIBCO) placed into petri dishes containing four coverslips onto which cells were plated at a density of about 8×10^4/coverslip. Cells were washed 5 h later and normal DMEM applied. Electrophysiological studies or dye uptake measurements were carried out 18-49 h later. For each set of transfections, parallel experiments were performed on HEK cells transfected with cDNA encoding both rP2X7 and hP2X7 receptors.
Electrophysiological experiments. Whole-cell recordings were made using the EPC9 patch-clamp amplifier and Pulse acquisition programs (HEKA, Lambrecht, Germany). Patch pipettes (5-7 MΩ) contained (mM) CsCl or NaCl 154, EGTA 10, HEPES 5. The normal extracellular solution contained (mM) NaCg 147, KCl2, CaCl2 2, MgCl2 1, HEPES 10 and glucose 12, and the “low divalent” solution had no magnesium and 0.3 mM CaCl2. Agonists were delivered by U-tube delivery system; antagonists, when applied, were present in both superfusion and U-tube. Experiments were carried out at room temperature.

Protein sequences, listed by entry. Tags and fused reporters are not part of them. Lines headed by an entry give the natural chain unless they say otherwise; changes in a name come on top.
UniProt Q99572: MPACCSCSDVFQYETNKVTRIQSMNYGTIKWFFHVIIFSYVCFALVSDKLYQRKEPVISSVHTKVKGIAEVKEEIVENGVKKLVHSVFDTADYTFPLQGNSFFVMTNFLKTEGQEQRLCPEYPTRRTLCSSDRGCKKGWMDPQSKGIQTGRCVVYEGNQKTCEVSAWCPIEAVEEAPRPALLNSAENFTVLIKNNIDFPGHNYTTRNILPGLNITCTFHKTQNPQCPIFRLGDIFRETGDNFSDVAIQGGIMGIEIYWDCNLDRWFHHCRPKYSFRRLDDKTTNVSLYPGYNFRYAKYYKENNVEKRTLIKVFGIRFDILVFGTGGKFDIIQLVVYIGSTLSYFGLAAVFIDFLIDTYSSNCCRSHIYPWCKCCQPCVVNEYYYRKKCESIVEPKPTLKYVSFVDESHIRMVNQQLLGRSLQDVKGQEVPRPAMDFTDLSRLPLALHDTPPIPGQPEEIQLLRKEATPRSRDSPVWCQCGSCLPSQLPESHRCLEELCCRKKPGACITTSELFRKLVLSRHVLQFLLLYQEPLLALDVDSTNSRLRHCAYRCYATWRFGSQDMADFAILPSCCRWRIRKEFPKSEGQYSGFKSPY

**Q.** Which IC50 does the source give for `Cc1nc(N=Nc2ccc(S(=O)(=O)O)cc2S(=O)(=O)O)c(COP(=O)(O)O)c(C=O)c1O` [PPADS, pyridoxal 5-phosphate-6-azophenyl 2′4′-disulfonic acid] here?
**A.** Its IC50 is 62 ± 4 µM.

— US6509163B1, “Methods of screening modulators of mammalian P2X7 purinergic receptors” (Glaxo Group Limited, priority 1997, dated 2003)
